From PMC10054634, “Chemical Constituents of Thesium chinense Turcz and Their In Vitro Antioxidant, Anti-Inflammatory and Cytotoxic Activities” (Molecules, 2023) come the findings set out here.

Where only a bound is given, the exact number is not on record here.

The data set in a line: Cytotoxicity in RAW 264.7 cells (CCK-8). The following applies: mouse.

`C[C@]12CC[C@H](O)C[C@@]1(O)CCC1C2CC[C@]2(C)[C@@H](C3=CC(=O)OC3)CC[C@]12O` (stereo partly shown) [Compound 4, perlplogemn]: the IC50 (commonly the point on the concentration scale where inhibition reaches its midpoint) was greater than 200 µM.
